Laboratory results taken from patent publication US10117854B2, “Method for treating hepatic encephalopathy” (MEDDAY PHARMACEUTICALS, priority 2016, dated 2018).

System: BDL rats
Assay: Open Field Test (behavioral test of hepatic encephalopathy)
Assay type: in vivo, rat
Conditions: biotin 300 mg/kg of food, compared to Sham rats
Description: Bile duct ligation (BDL) was used as a biliary cirrhosis model. All rats oh this group were operated on. They were randomly separated in two groups: BDL or simple laparotomy (SHAM, control-group). The BDL procedure was conducted as described previously (Kountouras J, Prolonged bile duct obstruction: a new experimental model for cirrhosis in the rat; Br J Exp Pathol 1984) and as controlled in our lab. Surgery was done under total anesthesia with […] isofluran (Aerrane, Baxter Maurepas) 3% mixed with air. Analgesia was done by sub-cutaneous injection of buprenorphin 2% (Buprécare 0.3 mg/ml, Axience) immediately before and after surgery. Rifaximin (Sigma Aldrich) was mixed with water at the dose of 50 mg/kg/d and began 3 days after the surgery. […] To assess the hepatic encephalopathy, the Open Field Test (BioSeb) was used, a behavioral test validated in BDL rats to explore neurological impairments (Leke, Plos One 2012; 7(5)). The test was done the day of sacrifice, in standardized experimental conditions (hour, place, light, noise). […] The data analyzed after 6 minutes of experiments were: total distance travelled (cm), time of mobility (s), speed (cm/s), number of zone changes, distance travelled in the center and periphery zone, time spent in the center and periphery zone, number of rearing, total duration of rearing.

In the case of `O=C(O)CCCC[C@@H]1SC[C@@H]2NC(=O)N[C@@H]21` [biotin], the “total distance travelled, mean speed and duration of activity (OpenField)” value is reported as “almost normalized”.
